Assay results from PubChem BioAssay AID686978 (National Center for Advancing Translational Sciences (NCATS), 2013).
Where “and” joins values, the source holds several entries; their conditions need not be identical. Equal values may be shown once. The entries are a selection whose mix differs from that of the whole data set. Records with an inconclusive call do not appear. Calls of active or inactive are those of the source. Calls come from the whole dose curve; as a rule, active = well fitted inhibition curve with a large enough effect; inconclusive = small, poorly fitted or top-dose-only effect; inactive = flat fitted curve, though single readings scatter.

Assay: qHTS for Inhibitors of human tyrosyl-DNA phosphodiesterase 1 (TDP1): qHTS in cells in absence of CPT; note: nearly all actives have a fitted effect of over 55% in size
Conditions: DT40 Tdp1-/- hTDP1 cells, no CPT, ATP luminescence, 48 h
Potency is the fitted concentration of half-maximal effect.

Compound | Potency
COc1cc(/C=N/NC(=O)c2ccc(O)cc2)ccc1Oc1ccc([N+](=O)[O-])cn1 | active: 20.6 µM
Nc1nccc(NCCSCc2ccccc2)n1 | active: 20.6 µM
CC[n+]1c(/C=C/N(C)c2ccccc2)oc2ccc(Cl)cc21 | active: 2.59 µM
CC(=O)C1=NN(c2ccccc2)C(c2ccc3c(c2)OCO3)N1c1ccc(N2CCOCC2)cc1 (stereo not drawn) | active: 16.4 µM
O=c1[nH]c(=O)n(C(c2ccccc2)(c2ccccc2)c2ccccc2)cc1N(CCO)CCO | active: 11.6 µM
COc1ccc(Nc2nc(Nc3ccc(OC)cc3)nc(SC3=NCCS3)n2)cc1 | active: 25.9 µM
CCN(CC)CCCC(C)Nc1c2ccc(Cl)cc2nc2ccc(OC)cc12 (stereo not drawn) | active: 4.47 µM and active: 2.31 µM
CC[n+]1c(/C=C/N(C)c2ccccc2)oc2ccccc21 | active: 0.651 µM
CC[n+]1c(/C=C/N(C)c2ccccc2)oc2ccc(F)cc21 | active: 4.11 µM
O=C(NCCc1ccccc1)c1oc2ccccc2c1COc1ccccc1 | active: 20.6 µM
CN(Cc1cnc2nc(N)nc(N)c2n1)c1ccc(C(=O)N[C@@H](CCC(=O)O)C(=O)O)cc1 | active: 10.6 nM and active: 10.3 nM
Cc1ccc(-c2csc(Nc3ccccc3)[n+]2CCc2ccccc2)cc1 | active: 16.4 µM
CN(Cc1cnc2nc(N)nc(N)c2n1)c1ccc(C(=O)NC(CCC(=O)O)C(=O)O)cc1 (stereo not drawn) | active: 46.1 nM and active: 29.1 nM
